From ChEMBL document CHEMBL3351445, “Potent 11β-hydroxylase inhibitors with inverse metabolic stability in human plasma and hepatic S9 fractions to promote wound healing” (J Med Chem, 2014)

Molecular target: T1, Cytochrome P450 11B2, mitochondrial (Homo sapiens, UniProt P19099)
T1 sequence (P19099 whole entry): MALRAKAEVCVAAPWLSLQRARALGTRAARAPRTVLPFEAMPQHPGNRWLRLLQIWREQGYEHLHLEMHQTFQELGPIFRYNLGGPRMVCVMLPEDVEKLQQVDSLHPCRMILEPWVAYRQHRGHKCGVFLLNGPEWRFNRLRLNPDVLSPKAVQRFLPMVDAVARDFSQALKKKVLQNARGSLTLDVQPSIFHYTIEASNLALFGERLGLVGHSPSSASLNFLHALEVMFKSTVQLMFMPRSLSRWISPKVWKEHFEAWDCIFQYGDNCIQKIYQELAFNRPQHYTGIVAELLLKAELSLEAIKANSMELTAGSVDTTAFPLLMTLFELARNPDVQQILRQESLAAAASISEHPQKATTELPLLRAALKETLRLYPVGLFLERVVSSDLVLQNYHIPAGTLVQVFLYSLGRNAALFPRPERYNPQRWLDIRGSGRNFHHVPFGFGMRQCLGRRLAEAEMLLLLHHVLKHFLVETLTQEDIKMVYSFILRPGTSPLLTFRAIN
Experiment: Inhibition of human CYP11B2 expressed in hamster V79MZh cells using [1,2-3H]-11-deoxycorticosterone as substrate

How did the IC50 turn out when `CC(C)(C(=O)c1cccnc1)c1cccnc1` [METYRAPONE] was run?
Its IC50 is 72 nM.
